# Measured values reported in patent US12233161B1, “Lipids and lipid nanoparticle formulations” (LONGUIDE BIOPHARMA CORPORATION, priority 2024, dated 2025).
# Tested on: mice
# Assay: In vivo delivery of small molecule IR780 by lipid nanoparticles in mice
# Settings: IV, 10 min, LNP 1.00:09.00:30.00:51.00:09.00 or IR780 alone
substance,measurement,setting,value
IR-780 iodide,% of organ targeting,Kidney,13.6%
same,% of organ targeting,Liver,13.6%
